This note sets out measurements from patent US11279687B2, “Compounds and compositions for the inhibition of NAMPT” (Valo Health, Inc., priority 2010, dated 2022).

The test relates to A2780 cells. Briefly: In-vitro cell proliferation assay (SRB), A2780 cells.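 Also: viable cell number read as SRB absorbance, background from media-only wells subtracted, IC50 interpolated from percent inhibition at two bracketing compound concentrations.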 Type of test: cell-based. The following applies: read-out: A2780 IC50, 72 hours.

One may read the IC50 as the concentration needed to halve the response being measured.

Consider `O=C(NCc1cccnc1)Nc1ccc(S(=O)(=O)c2cccc(C(F)(F)F)c2)cc1`, for which the IC50 amounted to 247 nM.
